Assay results from patent publication US20250313563A1, “GLYCOGEN SYNTHASE KINASE 3 INHIBITORS AND USES THEREOF” (The Broad Institute, Inc., priority 2022, published 2025).
Where two headings read alike, the source gives them in different places.

Protein sequences, listed by entry. Tags and fused reporters are not part of them.
UniProt P49841, whole entry: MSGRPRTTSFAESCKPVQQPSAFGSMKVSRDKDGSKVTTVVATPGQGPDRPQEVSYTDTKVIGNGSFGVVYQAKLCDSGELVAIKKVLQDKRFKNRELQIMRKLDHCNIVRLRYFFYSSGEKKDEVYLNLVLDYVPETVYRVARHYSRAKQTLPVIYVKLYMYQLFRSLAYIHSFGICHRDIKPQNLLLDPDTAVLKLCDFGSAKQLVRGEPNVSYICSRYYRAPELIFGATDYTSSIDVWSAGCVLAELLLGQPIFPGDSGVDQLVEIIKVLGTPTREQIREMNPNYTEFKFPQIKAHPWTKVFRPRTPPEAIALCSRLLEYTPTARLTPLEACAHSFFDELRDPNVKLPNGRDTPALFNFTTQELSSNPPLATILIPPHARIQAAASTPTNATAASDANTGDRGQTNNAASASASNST
UniProt P49840, whole entry: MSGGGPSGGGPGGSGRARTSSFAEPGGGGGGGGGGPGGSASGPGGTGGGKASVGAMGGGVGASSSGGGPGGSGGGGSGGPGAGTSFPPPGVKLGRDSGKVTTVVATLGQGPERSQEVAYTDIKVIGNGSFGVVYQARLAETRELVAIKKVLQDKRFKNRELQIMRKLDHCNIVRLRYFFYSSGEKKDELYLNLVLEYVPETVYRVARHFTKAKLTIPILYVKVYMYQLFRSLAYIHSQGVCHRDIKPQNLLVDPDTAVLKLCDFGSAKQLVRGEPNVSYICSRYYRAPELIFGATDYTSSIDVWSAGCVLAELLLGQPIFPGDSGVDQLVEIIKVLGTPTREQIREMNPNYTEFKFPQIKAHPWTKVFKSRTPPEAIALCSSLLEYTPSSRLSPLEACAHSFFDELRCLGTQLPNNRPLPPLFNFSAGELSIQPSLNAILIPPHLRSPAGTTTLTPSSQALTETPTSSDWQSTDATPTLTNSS

What was measured:
[1] = target: GSK3b (GST-full length GSK3b) (Homo sapiens (Human), UniProt P49841); assay: GSK3b TR-FRET kinase assay; type: biochemical
[2] = target: GSK3α (GST-full length GSK3α) (Homo sapiens (Human), UniProt P49840); assay: GSK3α TR-FRET kinase assay; type: biochemical
[3] = read-out: GSK3-B (TR-FRET 1 mM ATP), GMean, IC50, 1 mM ATP, geometric mean
[4] = read-out: GSK3-B TR-FRET BIOCHEMICAL (TR-FRET);, 1 nM GSK3b, 2 μM ATP, 30 minute preincubation, Table 16
[5] = read-out: GSK3-A (TR-FRET 1 mM ATP), GMean, IC50, 1 mM ATP, geometric mean
[6] = read-out: GSK3-A TR-FRET BIOCHEMICAL (TR-FRET);, 1 nM GSK3α, 4 μM ATP, 30 minute preincubation, Table 16
[7] = read-out: GSK3-B TR-FRET BIOCHEMICAL (TR-FRET), GMean, IC50, 1 nM GSK3b, 2 μM ATP, 30 minute preincubation, geometric mean
[8] = read-out: GSK3-A TR-FRET BIOCHEMICAL (TR-FRET), GMean, IC50, 1 nM GSK3α, 4 μM ATP, 30 minute preincubation, geometric mean
[9] = read-out: GSK3-B TR-FRET BIOCHEMICAL (TR-FRET), IC50, 1 nM GSK3b, 2 μM ATP, 30 minute preincubation (Table 16)
[10] = read-out: GSK3-A TR-FRET BIOCHEMICAL (TR-FRET), IC50, 1 nM GSK3α, 4 μM ATP, 30 minute preincubation (Table 16)
[11] = read-out: GSK3-B TR-FRET BIOCHEMICAL (TR-FRET), IC50, 1 nM GSK3b, 2 μM ATP, 30 minute preincubation
[12] = read-out: GSK3-A TR-FRET BIOCHEMICAL (TR-FRET), IC50, 1 nM GSK3α, 4 μM ATP, 30 minute preincubation

Row | Compound | IC50 [1, 7] [nM] | IC50 [2, 8] [nM] | IC50 [1, 9] [nM] | IC50 [2, 10] [nM] | also measured
1 | CC[C@]1(c2cccc(-c3ccncc3)c2)C2=C(Nc3n[nH]cc31)[C@H](F)C(C)(C)CC2=O |  |  |  |  | IC50 [1, 3]: 1000 to 5000 nM; IC50 [1, 4]: < 100 nM; IC50 [2, 5]: 100 to 1000 nM; IC50 [2, 6]: < 100 nM
2 | CCC1(c2cccc(Cl)c2)C2=C(CC(C)(C)CC2=O)Nc2n[nH]c(C(F)(F)F)c21 (centres unmarked) [Compound 801309] | < 100 | < 100 |  |  | 
3 | CCc1cccc(N(C)c2cccc([C@@]3(CC)C4=C(CC(C)(C)CC4=O)Nc4n[nH]cc43)c2)n1 |  |  |  |  | IC50 [1, 4]: 100 to 1000 nM; IC50 [2, 6]: < 100 nM
4 | CC[C@@]1(c2cccc(N(C)c3ncccn3)c2)C2=C(CC(C)(C)NC2=O)Nc2n[nH]c(C(F)F)c21 |  |  | < 100 | < 100 | IC50 [1, 3]: 100 to 1000 nM; IC50 [2, 5]: < 100 nM
5 | CCC1(c2cccc(N(C)C(=O)C3CCN(C)CC3)c2)C2=C(CC(C)(C)CC2=O)Nc2n[nH]cc21 (centres unmarked) |  |  | 1000 to 5000 | 100 to 1000 | 
6 | CC[C@]1(c2cccc(-c3cn(C)nc3C)c2)C2=C(CC(C)(C)NC2=O)Nc2n[nH]c(C(F)(F)F)c21 | > 5000 | 1000 to 5000 |  |  | 
7 | CC[C@]1(c2cccc(-c3ccnc4ccc(OC)cc34)c2)C2=C(CC(C)(C)NC2=O)Nc2n[nH]cc21 | < 100 | < 100 |  |  | 
8 | CC1(C)CC(=O)C2=C(C1)Nc1n[nH]c(CCC(F)(F)F)c1[C@]2(C)c1ccccc1 | < 100 | 100 to 1000 |  |  | 
9 | CCC1(c2cccc(-c3ccnc(C(C)(C)O)c3)c2)C2=C(CC(C)(C)CC2=O)Nc2n[nH]cc21 (centres unmarked) |  |  |  |  | IC50 [1, 4]: 1000 to 5000 nM; IC50 [2, 6]: < 100 nM
10 | CC[C@@]1(c2cccc(-c3c(F)cncc3Cl)c2)C2=C(CC(C)(C)NC2=O)Nc2n[nH]cc21 | > 5000 | 1000 to 5000 |  |  | 
11 | CC[C@@]1(c2cccc(-c3ccnc4c3CCC4)c2)C2=C(CC(C)(C)NC2=O)Nc2n[nH]c(C(F)(F)F)c21 | < 100 | < 100 |  |  | IC50 [1, 3]: 1000 to 5000 nM; IC50 [2, 5]: 100 to 1000 nM
12 | CC[C@]1(c2cccc(-c3cc[n+]([O-])cc3[S@@+](C)[O-])c2)C2=C(CC(C)(C)CC2=O)Nc2n[nH]cc21 |  |  |  |  | IC50 [1, 4]: 1000 to 5000 nM; IC50 [2, 6]: 100 to 1000 nM
13 | CCC1(c2cccc(-c3cncn3C)c2)C2=C(CC(C)(C)NC2=O)Nc2n[nH]cc21 (single isomer, unassigned) |  |  |  |  | IC50 [1, 11]: < 100 nM; IC50 [2, 12]: < 100 nM
14 | CC[C@@]1(c2cccc(-c3cnnc(C)c3)c2)C2=C(CC(C)(C)NC2=O)Nc2n[nH]cc21 |  |  |  |  | IC50 [1, 11]: > 5000 nM; IC50 [2, 12]: 1000 to 5000 nM
15 | CCC1(c2cccc(N3CCCC3)c2)C2=C(CC(C)(C)NC2=O)Nc2n[nH]c(C)c21 (centres unmarked) | 100 to 1000 | < 100 |  |  | 
16 | CCC1(c2cccc(N3CC4CCC3CC4)c2)C2=C(CC(C)(C)CC2=O)Nc2n[nH]cc21 (centres unmarked) |  |  | 100 to 1000 | < 100 | 
17 | CC[C@@]1(c2cccc(-c3cn(C)nc3C)c2)C2=C(CC3(CCC3)NC2=O)Nc2n[nH]cc21 |  |  | < 100 | < 100 | IC50 [1, 3]: 100 to 1000 nM; IC50 [2, 5]: < 100 nM
18 | CC[C@@]1(c2cccc(N(C)c3cccc(OC)n3)c2)C2=C(CC(C)(C)CC2=O)Nc2n[nH]cc21 |  |  | > 5000 | > 5000 | 
19 | CC[C@]1(c2cccc(-c3cnn(C)c3)c2)C2=C(Nc3n[nH]cc31)[C@@H](F)C(C)(C)CC2=O |  |  |  |  | IC50 [1, 3]: > 5000 nM; IC50 [1, 4]: 100 to 1000 nM; IC50 [2, 5]: 100 to 1000 nM; IC50 [2, 6]: < 100 nM

Row | Compound | IC50 [1, 7] [nM] | IC50 [2, 8] [nM] | IC50 [1, 9] [nM] | IC50 [2, 10] [nM] | also measured
20 | CC[C@]1(c2cccc(Br)c2)C2=C(C[C@@H](C(F)(F)F)CC2=O)Nc2n[nH]cc21 | > 5000 | > 5000 |  |  | 
21 | CC[C@]1(c2cccc(-c3cnn(-c4ccncc4)c3)c2)C2=C(CC(C)(C)NC2=O)Nc2n[nH]cc21 |  |  | > 5000 | 100 to 1000 | 
22 | CC[C@@]1(c2cccc(S(C)(=O)=O)c2)C2=C(CC(C)(C)NC2=O)Nc2n[nH]cc21 |  |  |  |  | IC50 [1, 11]: > 5000 nM; IC50 [2, 12]: 1000 to 5000 nM
23 | CCC1(c2cccc(-c3cc(C)ncn3)c2)C2=C(CC(C)(C)CC2=O)Nc2n[nH]cc21 (centres unmarked) |  |  |  |  | IC50 [1, 4]: 100 to 1000 nM; IC50 [2, 6]: < 100 nM
24 | CC[C@@]1(c2cccc(S(C)(=O)=O)c2)C2=C(CC(C)(C)NC2=O)Nc2n[nH]c(C)c21 | > 5000 | 1000 to 5000 |  |  | 
25 | CCC1(c2cccc(N(C)C(=O)C3CCOCC3)c2)C2=C(CC(C)(C)CC2=O)Nc2n[nH]cc21 (centres unmarked) |  |  | 100 to 1000 | < 100 | 
26 | CC1(C)CC(=O)C2=C(C1)Nc1n[nH]cc1[C@@]21COC2(CN(C(=O)C(C)(F)F)C2)C1 |  |  |  |  | IC50 [1, 11]: 100 to 1000 nM; IC50 [2, 12]: < 100 nM
27 | CC[C@@]1(c2cccc(N(C)c3cccc(C(F)(F)F)c3)c2)C2=C(CC(C)(C)CC2=O)Nc2n[nH]cc21 |  |  | > 5000 | > 5000 | 
28 | CC[C@]1(c2cccc(-c3ccnc(C)c3)c2)C2=C(CC(C)(C)CC2=O)Nc2n[nH]c(C(F)(F)F)c21 |  |  | < 100 | < 100 | IC50 [1, 3]: 100 to 1000 nM; IC50 [2, 5]: < 100 nM
29 | CC[C@]1(c2cccc(Br)c2)C2=C(C[C@H](C)CC2=O)Nc2n[nH]c(C(F)(F)F)c21 | < 100 | < 100 |  |  | 
30 | CC[C@@]1(c2cccc(N(C)c3cc(C)ccn3)c2)C2=C(CC(C)(C)CC2=O)Nc2n[nH]cc21 |  |  |  |  | IC50 [1, 4]: > 5000 nM; IC50 [2, 6]: > 5000 nM
31 | CC1(C)CC(=O)C2=C(C1)Nc1n[nH]c(C(F)(F)F)c1C21CCCc2ccccc21 (centres unmarked) | < 100 | < 100 |  |  | 
32 | CC(C)(C)Cc1[nH]nc2c1C1(CCc3c(F)cccc31)C1=C(CC(C)(C)CC1=O)N2 (centres unmarked) [Compound 791256] | < 100 | 100 to 1000 |  |  | 
33 | CC[C@@]1(c2cccc(-c3ccnc4cc(F)c(F)cc34)c2)C2=C(CC(C)(C)NC2=O)Nc2n[nH]cc21 | > 5000 | 1000 to 5000 |  |  | 
34 | CC[C@]1(c2cccc(-c3c([N+](=O)[O-])c(C)nn3C)c2)C2=C(CC(C)(C)NC2=O)Nc2n[nH]cc21 |  |  | < 100 | < 100 | 
35 | CC[C@]1(c2cccc(-c3ccnn3C)c2)C2=C(C[C@]3(CCCOC3)NC2=O)Nc2n[nH]cc21 | < 100 | < 100 |  |  | IC50 [1, 3]: 1000 to 5000 nM; IC50 [2, 5]: 100 to 1000 nM
36 | CC[C@]1(c2cccc(OC)c2)C2=C(CC(C)(C)CC2=O)Nc2n[nH]c(C(=O)OC)c21 |  |  | < 100 | < 100 | 
37 | CC[C@]1(c2cccc(-c3c(F)cncc3OC)c2)C2=C(CC(C)(C)NC2=O)Nc2n[nH]cc21 | < 100 | < 100 |  |  | IC50 [1, 3]: 100 to 1000 nM; IC50 [2, 5]: < 100 nM

Second part, led by results:

Row | IC50 [1, 7] [nM] | IC50 [2, 8] [nM] | IC50 [1, 9] [nM] | IC50 [2, 10] [nM] | Compound | also measured
38 |  |  | < 100 | < 100 | CC[C@@]1(c2cccc([C@H]3CCOC3)c2)C2=C(CC(C)(C)CC2=O)Nc2n[nH]cc21 | 
39 |  |  | < 100 | < 100 | CCC1(c2cccc(-c3ccnn3C)c2)C2=C(CC(C)(C)CC2=O)Nc2n[nH]cc21 (centres unmarked) [Compound 911992] | 
40 |  |  | 100 to 1000 | < 100 | CCC1(c2cccc(N3CCCC[C@H]3C)c2)C2=C(CC(C)(C)CC2=O)Nc2n[nH]cc21 (some centres unmarked) | 
41 |  |  | < 100 | < 100 | CCC1(c2cccc(-c3cc(C)ncc3F)c2)C2=C(CC(C)(C)CC2=O)Nc2n[nH]cc21 (centres unmarked) | 
42 | 100 to 1000 | < 100 |  |  | CCC1(c2cccc(-c3cnn(C)c3)c2)C2=C(CC(C)(C)NC2=O)Nc2n[nH]c(F)c21 (centres unmarked) [Compound 949011] | 
43 |  |  | > 5000 | > 5000 | CC[C@@]1(c2cccc(N(C)c3cccc(C)n3)c2)C2=C(CC(C)(C)CC2=O)Nc2n[nH]cc21 | 
44 | 100 to 1000 | < 100 |  |  | CCC1(c2cccc(-c3cnn(C)c3)c2)C2=C(CC(C)(C)CC2=O)Nc2n[nH]cc21 (centres unmarked) | 
45 | < 100 | < 100 |  |  | CCC1(c2cccc(N(C)c3cccnc3)c2)C2=C(CC(C)(C)CC2=O)Nc2n[nH]cc21 (centres unmarked) | 
46 |  |  | > 5000 | 1000 to 5000 | CC[C@]1(c2cccc(N3C[C@@H](C)[C@H](C)C3)c2)C2=C(CC(C)(C)CC2=O)Nc2n[nH]cc21 | 
47 |  |  | 1000 to 5000 | 100 to 1000 | CCC1(c2cccc(N(C)c3nccn3C)c2)C2=C(CC(C)(C)CC2=O)Nc2n[nH]cc21 (centres unmarked) | 
